Earlier results as cited in patent EP1222183B1, “BENZOPYRAN DERIVATIVES” (priority 1999, dated 2001).

Test system: diastolic blood pressure
Conditions: dog, i.v., dose lowering diastolic blood pressure by 25%; data from Leonardi A. et al. 1997; cited from earlier work

SMILES: COc1cc2nc(N3CCN(C(=O)C4CCCO4)CC3)nc(N)c2cc1OC (stereo not shown) [Terazosin, terazosin]
- DBP ED25: 0.0614 mg/kg
